From ChEMBL document CHEMBL2021919, “Computational analysis of structure-based interactions and ligand properties can predict efflux effects on antibiotics” (2012)

System: Escherichia coli
Test: Ratio of MIC for wild type Escherichia coli JC7623 to MIC for acrAB-deficient Escherichia coli JZM120
Assay type: functional

Row | Structure (SMILES) | Ratio
1 | CC(=O)OCC1=C(C(=O)O)N2C(=O)[C@@H](NC(=O)Cc3cccs3)[C@H]2SC1 [CEPHALOTHIN] | 1
2 | CCN1CCN(C(=O)N[C@@H](C(=O)N[C@@H]2C(=O)N3[C@@H]2SC(C)(C)[C@@H]3C(=O)O)c2ccccc2)C(=O)C1=O [PIPERACILLIN] | 16
